Among the data in ChEMBL document CHEMBL1137232 (J Med Chem, 2004) are Ki values, retold here.

Chains of the proteins cited; added tags and fusions are not shown.
UniProt Q9WTR4, whole entry: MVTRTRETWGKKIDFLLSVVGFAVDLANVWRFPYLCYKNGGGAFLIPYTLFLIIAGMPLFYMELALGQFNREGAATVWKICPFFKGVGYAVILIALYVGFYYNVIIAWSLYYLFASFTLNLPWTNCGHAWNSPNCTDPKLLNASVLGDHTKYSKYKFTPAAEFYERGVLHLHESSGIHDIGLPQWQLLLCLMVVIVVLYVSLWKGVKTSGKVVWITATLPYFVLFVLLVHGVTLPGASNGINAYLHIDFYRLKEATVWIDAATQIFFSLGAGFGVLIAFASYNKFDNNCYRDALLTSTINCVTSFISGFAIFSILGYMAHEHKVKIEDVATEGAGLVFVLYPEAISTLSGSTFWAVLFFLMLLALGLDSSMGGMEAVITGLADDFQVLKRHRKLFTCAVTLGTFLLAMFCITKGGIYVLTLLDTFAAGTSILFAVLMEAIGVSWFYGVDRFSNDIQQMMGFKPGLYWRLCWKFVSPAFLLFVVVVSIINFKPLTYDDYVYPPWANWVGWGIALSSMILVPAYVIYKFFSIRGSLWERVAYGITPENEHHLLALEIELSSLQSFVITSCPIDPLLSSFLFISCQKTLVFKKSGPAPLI

For this experiment, the target named is Norepinephrine transporter (Rattus norvegicus, UniProt Q9WTR4). Put plainly: Inhibition of high affinity uptake by the norepinephrine transporter from rat synaptosomal nerve endings by using [3H]NE as radioligand.

Bounds are passed on as bounds.

As usually defined, the Ki is a measure of affinity in units of concentration, obtained from inhibition or displacement. High values mean weaker binding, low ones tighter binding. `NC(=O)C[S+]([O-])C(c1ccccc1)c1ccccc1` (stereo unspecified) [MODAFINIL] came in with a Ki of over 10 µM.
